Paper PMC4862888 (Journal of chromatography. B, Analytical technologies in …, 2015)

By UniProt entry, the sequences of proteins in these tests, tags left out. Residues count along the entry.
UniProt P02768, 25-609: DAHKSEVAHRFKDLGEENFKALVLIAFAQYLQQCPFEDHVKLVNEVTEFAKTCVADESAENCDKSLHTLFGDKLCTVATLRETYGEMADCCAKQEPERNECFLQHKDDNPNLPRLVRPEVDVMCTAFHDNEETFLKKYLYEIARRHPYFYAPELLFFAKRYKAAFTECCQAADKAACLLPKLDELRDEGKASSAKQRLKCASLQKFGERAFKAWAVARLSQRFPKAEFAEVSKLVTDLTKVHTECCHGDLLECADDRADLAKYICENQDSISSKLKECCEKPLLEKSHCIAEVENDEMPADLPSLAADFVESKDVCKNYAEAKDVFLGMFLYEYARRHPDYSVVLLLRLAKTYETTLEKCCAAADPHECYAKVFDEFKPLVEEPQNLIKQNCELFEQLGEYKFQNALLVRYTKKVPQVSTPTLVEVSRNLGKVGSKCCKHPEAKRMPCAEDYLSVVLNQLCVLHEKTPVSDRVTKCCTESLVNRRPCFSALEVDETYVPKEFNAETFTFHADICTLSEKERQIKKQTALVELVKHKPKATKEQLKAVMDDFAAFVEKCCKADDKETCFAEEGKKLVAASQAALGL

Biological target: human serum albumin (HSA) (Homo sapiens, UniProt P02768)
Experiment: zonal elution, high-performance affinity chromatography on entrapped HSA
Type: binding

Kd: 8.33 µM
SMILES: CN(C)CCCN1c2ccccc2Sc2ccc(Cl)cc21 [chlorpromazine]
